In US12709634B2, “Treatment of diseases related to hepatitis B virus” (priority 2019, dated 2026):

Legend:
[1] = test system: PBMCs from donors who have previously resolved HBV; assay: immunogenicity of HLA-binding peptides: IFNγ ELISA on expanded PBMCs; type: cell-based, human; settings: PBMCs of HBV resolvers expanded 14 days with peptide pools, single peptide re-stimulation 48 hr at 10 μg/ml
[2] = molecular target: HLA-A*02:01 (Homo sapiens, UniProt P04439, D140Y/D185E/D98H/E176V/E277Q/G131W/G231S/I119V/I121R/I166T/I218V/L300P/L318F/N151K/N90K/P208A/P217A/Q86G/Q94H/R138H/R169H/T345S); assay: in vitro HLA-binding assay (UV-induced peptide exchange, HLA class I ELISA); settings: FIG. 3B

“FLPSDFFPSV [Peptide C18-27, reference compound]” was tested, and the IFNγ production [1] was “IFNγ production was detected” and the “binding compared with the positive control” value [2] was “scored even better than the positive control”.
